Values quoted from earlier work as cited in patent US20110183366A1, “Methods for achieving a protective ACE2 expression level to treat kidney disease and hypertension” (priority 2004, published 2011).

Molecular target: angiotensin II type 1 receptor (Homo sapiens, UniProt P30556)
Conditions: selectivity AT1 over AT2, 'reportedly'; cited from earlier work

Compound	affinity for the type 1 receptor relative to the type 2 receptor
CCCc1nc2c(C)cc(-c3nc4ccccc4n3C)cc2n1Cc1ccc(-c2ccccc2C(=O)O)cc1 [telmisartan]	about 3,000 times
CCCCC(=O)N(Cc1ccc(-c2ccccc2-c2nnn[nH]2)cc1)[C@H](C(=O)O)C(C)C [Valsartan, valsartan]	about 20,000 times
